How the values were obtained:
HT29 = experiment: MTT cell viability assay, HT29; details: read-out: IC50-MTT HT29; HT29, 72 h; values of two independent experiments
HCT116 = experiment: MTT cell viability assay, HCT116; details: read-out: IC50-MTT HCT116; HCT116, 72 h; values of two independent experiments
[1] = room temperature overnight, LC–MS

Structure (SMILES): C=CC(=O)N(CC(=O)NCCN1CCOCC1)c1nc(-c2ccccc2)cs1 [Compound 43, N-(2-((2-Morpholinoethyl)amino)-2-oxoethyl)-N-(4-phenylthiazol-2-yl)acrylamide]
- IC50 (HT29): 12.2 µM

Structure (SMILES): C=CC(=O)Nc1nc(-c2ccccc2)cs1 [Compound 10, N-(4-Phenylthiazol-2-yl)acrylamide]
- IC50 (HCT116): 29 µM

Structure (SMILES): C=CC(=O)N(Cc1cc(C)no1)c1cc(-c2ccccc2O)cs1 [Compound 53, N-(4-(2-Hydroxyphenyl)thiophen-2-yl)-N-((3-methylisoxazol-5-yl)methyl)acrylamide]
- IC50 (HT29): 29.5 µM
- IC50 (HCT116): 19.3 µM

Structure (SMILES): C=CC(=O)N(CC(=O)NC1COC1)c1nc(-c2ccccc2)cs1 [Compound 42, N-(2-(Oxetan-3-ylamino)-2-oxoethyl)-N-(4-phenylthiazol-2-yl)acrylamide]
- IC50 (HCT116): 23.2 µM

Structure (SMILES): C=CC(=O)Nc1nc(-c2ccccc2O)cs1 [Compound 24, N-(4-(2-Hydroxylphenyl)thiazol-2-yl)acrylamide]
- IC50 (HT29): 24.9 µM

Structure (SMILES): C=CC(=O)Nc1nc(-c2ccccc2)c(C)s1 [Compound 29, N-(4-Phenyl-5-methyl-thiazol-2-yl)acrylamide]
- IC50 (HCT116): 20.1 µM

Structure (SMILES): C=CC(=O)Nc1nc(-c2ccc(C)cc2)cs1 [Compound 19, N-(4-(4-Methylphenyl)thiazol-2-yl)acrylamide]
- IC50 (HCT116): 15.3 µM

Structure (SMILES): C=CC(=O)Nc1nc(-c2ccccc2)c(C(=O)OCC)s1 [Compound 30, Ethyl 2-Acrylamido-4-phenylthiazole-5-carboxylate]
- IC50 (HT29): 18 µM
- IC50 (HCT116): 19.6 µM

Structure (SMILES): C=CC(=O)Nc1nc(-c2ccccc2Cl)cs1 [Compound 16, N-(4-(2-Chlorophenyl)thiazol-2-yl)acrylamide]
- IC50 (HT29): 19.5 µM
- IC50 (HCT116): 12.3 µM

Structure (SMILES): C=CC(=O)N(CC(=O)N1CCOCC1)c1nc(-c2ccccc2)cs1 [Compound 41, N-(2-Morpholino-2-oxoethyl)-N-(4-phenylthiazol-2-yl)acrylamide]
- IC50 (HT29): 13.3 µM
- IC50 (HCT116): 14.6 µM

Structure (SMILES): C=CC(=O)Nc1ncc(-c2ccccc2)s1 [Compound 9, N-(5-Phenylthiazol-2-yl)acrylamide]
- IC50 (HT29): 24.3 µM

Structure (SMILES): C=CC(=O)Nc1nc(-c2ccc(C(F)(F)F)cc2)cs1 [Compound 20, N-(4-(4-Trifluoromethylphenyl)thiazol-2-yl)acrylamide]
- IC50 (HT29): 4 µM
- IC50 (HCT116): 4 µM

Structure (SMILES): C=CC(=O)Nc1nc(-c2ccc(Cl)cc2)cs1 [Compound 18, N-(4-(4-Chlorophenyl)thiazol-2-yl)acrylamide]
- stability in 20% acetonitrile/PBS buffer solution [1]: good stability
- IC50 (HT29): 23.7 µM
- IC50 (HCT116): 12.6 µM

Structure (SMILES): C=CC(=O)Nc1nc(-c2ccc3ccccc3c2)cs1 [Compound 23, N-(4-(Naphthalen-2-yl)thiazol-2-yl)acrylamide]
- IC50 (HT29): 13.4 µM
- IC50 (HCT116): 11.8 µM

Structure (SMILES): C=CC(=O)N(Cc1cc(C)no1)c1nc(-c2ccc(C(F)(F)F)cc2)cs1 [Compound 47, N-((3-Methylisoxazol-5-yl)methyl)-N-(4-(4-trifluoromethylphenyl)thiazol-2-yl)acrylamide]
- IC50 (HT29): 22.3 µM

Structure (SMILES): C=CC(=O)Nc1nc(-c2cccc(Cl)c2)cs1 [Compound 17, N-(4-(3-Chlorophenyl)thiazol-2-yl)acrylamide]
- IC50 (HCT116): 11.9 µM

Structure (SMILES): C=CC(=O)Nc1nc(-c2ccc(OC)cc2)cs1 [Compound 21, N-(4-(4-Methoxyphenyl)thiazol-2-yl)acrylamide]
- IC50 (HCT116): 8 µM

Structure (SMILES): C=CC(=O)Nc1nc(-c2ccc3c(c2)OCO3)cs1 [Compound 22, N-(4-(3,4-Dioxylphenyl)thiazol-2-yl)acrylamide]
- IC50 (HT29): 17.7 µM

Structure (SMILES): C=CS(=O)(=O)Nc1ccc(Cl)c(S(=O)(=O)N(C)C)c1 [Compound 2, 2-Chloro-N,N-dimethyl-5-(vinylsulfonamido)benzenesulfonamide]
- IC50 (HT29): 16.8 µM
- IC50 (HCT116): 11 µM
